Test results taken from patent US9624208B2, “Benzoxazolinone compounds with selective activity in voltage-gated sodium channels” (Merck Sharp & Dohme Corp., priority 2012, dated 2017).

The chains behind the UniProt entries cited, without tags or fusion partners.
UniProt Q15858, whole entry: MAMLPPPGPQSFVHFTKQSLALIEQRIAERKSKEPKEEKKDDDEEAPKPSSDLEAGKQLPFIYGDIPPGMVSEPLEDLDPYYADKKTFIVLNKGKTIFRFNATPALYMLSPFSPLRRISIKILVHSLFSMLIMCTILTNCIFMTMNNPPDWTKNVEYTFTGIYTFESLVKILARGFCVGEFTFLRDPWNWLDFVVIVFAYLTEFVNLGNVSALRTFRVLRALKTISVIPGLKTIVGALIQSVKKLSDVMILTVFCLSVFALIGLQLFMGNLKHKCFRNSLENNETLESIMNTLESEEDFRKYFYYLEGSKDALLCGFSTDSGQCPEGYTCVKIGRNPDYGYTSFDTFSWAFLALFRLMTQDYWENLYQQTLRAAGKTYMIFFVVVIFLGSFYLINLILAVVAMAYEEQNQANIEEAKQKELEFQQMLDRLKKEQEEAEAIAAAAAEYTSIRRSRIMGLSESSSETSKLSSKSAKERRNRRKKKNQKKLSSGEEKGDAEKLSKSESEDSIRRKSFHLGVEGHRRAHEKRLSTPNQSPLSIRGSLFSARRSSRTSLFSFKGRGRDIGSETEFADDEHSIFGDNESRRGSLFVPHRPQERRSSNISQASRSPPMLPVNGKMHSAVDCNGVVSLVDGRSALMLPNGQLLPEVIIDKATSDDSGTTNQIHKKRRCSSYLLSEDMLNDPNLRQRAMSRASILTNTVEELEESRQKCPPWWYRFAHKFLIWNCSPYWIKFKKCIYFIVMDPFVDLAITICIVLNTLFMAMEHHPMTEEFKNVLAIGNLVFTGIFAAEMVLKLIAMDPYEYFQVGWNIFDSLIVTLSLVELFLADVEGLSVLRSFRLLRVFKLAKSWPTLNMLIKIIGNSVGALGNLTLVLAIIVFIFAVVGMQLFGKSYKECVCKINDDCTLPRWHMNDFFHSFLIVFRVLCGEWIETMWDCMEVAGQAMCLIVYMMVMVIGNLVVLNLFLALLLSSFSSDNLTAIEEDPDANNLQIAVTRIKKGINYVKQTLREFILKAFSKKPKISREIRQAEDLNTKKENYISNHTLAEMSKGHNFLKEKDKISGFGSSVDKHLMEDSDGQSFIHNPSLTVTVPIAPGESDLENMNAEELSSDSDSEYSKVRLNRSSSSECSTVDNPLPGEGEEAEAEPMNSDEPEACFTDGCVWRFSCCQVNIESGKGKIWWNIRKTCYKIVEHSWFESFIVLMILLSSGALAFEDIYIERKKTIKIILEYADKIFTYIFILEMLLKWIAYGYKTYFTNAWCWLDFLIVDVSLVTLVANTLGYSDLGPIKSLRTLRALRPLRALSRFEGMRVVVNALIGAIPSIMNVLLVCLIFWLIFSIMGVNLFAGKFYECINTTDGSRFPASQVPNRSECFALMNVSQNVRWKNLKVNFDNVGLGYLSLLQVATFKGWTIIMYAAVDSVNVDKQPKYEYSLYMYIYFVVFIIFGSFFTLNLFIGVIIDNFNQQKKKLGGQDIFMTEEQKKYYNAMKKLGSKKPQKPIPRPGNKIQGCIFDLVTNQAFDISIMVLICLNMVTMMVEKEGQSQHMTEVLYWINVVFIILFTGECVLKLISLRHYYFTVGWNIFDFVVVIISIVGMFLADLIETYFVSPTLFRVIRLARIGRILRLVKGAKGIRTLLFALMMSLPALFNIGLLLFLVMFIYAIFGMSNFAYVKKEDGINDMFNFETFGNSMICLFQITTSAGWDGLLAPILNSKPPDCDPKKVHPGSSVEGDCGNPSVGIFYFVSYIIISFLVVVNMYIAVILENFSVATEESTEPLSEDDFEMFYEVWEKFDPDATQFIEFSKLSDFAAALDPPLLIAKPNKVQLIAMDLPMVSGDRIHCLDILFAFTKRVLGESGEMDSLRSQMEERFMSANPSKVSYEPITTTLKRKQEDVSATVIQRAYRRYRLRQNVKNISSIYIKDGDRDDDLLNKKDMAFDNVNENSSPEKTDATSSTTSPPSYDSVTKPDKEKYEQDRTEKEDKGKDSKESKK
UniProt Q14524, whole entry: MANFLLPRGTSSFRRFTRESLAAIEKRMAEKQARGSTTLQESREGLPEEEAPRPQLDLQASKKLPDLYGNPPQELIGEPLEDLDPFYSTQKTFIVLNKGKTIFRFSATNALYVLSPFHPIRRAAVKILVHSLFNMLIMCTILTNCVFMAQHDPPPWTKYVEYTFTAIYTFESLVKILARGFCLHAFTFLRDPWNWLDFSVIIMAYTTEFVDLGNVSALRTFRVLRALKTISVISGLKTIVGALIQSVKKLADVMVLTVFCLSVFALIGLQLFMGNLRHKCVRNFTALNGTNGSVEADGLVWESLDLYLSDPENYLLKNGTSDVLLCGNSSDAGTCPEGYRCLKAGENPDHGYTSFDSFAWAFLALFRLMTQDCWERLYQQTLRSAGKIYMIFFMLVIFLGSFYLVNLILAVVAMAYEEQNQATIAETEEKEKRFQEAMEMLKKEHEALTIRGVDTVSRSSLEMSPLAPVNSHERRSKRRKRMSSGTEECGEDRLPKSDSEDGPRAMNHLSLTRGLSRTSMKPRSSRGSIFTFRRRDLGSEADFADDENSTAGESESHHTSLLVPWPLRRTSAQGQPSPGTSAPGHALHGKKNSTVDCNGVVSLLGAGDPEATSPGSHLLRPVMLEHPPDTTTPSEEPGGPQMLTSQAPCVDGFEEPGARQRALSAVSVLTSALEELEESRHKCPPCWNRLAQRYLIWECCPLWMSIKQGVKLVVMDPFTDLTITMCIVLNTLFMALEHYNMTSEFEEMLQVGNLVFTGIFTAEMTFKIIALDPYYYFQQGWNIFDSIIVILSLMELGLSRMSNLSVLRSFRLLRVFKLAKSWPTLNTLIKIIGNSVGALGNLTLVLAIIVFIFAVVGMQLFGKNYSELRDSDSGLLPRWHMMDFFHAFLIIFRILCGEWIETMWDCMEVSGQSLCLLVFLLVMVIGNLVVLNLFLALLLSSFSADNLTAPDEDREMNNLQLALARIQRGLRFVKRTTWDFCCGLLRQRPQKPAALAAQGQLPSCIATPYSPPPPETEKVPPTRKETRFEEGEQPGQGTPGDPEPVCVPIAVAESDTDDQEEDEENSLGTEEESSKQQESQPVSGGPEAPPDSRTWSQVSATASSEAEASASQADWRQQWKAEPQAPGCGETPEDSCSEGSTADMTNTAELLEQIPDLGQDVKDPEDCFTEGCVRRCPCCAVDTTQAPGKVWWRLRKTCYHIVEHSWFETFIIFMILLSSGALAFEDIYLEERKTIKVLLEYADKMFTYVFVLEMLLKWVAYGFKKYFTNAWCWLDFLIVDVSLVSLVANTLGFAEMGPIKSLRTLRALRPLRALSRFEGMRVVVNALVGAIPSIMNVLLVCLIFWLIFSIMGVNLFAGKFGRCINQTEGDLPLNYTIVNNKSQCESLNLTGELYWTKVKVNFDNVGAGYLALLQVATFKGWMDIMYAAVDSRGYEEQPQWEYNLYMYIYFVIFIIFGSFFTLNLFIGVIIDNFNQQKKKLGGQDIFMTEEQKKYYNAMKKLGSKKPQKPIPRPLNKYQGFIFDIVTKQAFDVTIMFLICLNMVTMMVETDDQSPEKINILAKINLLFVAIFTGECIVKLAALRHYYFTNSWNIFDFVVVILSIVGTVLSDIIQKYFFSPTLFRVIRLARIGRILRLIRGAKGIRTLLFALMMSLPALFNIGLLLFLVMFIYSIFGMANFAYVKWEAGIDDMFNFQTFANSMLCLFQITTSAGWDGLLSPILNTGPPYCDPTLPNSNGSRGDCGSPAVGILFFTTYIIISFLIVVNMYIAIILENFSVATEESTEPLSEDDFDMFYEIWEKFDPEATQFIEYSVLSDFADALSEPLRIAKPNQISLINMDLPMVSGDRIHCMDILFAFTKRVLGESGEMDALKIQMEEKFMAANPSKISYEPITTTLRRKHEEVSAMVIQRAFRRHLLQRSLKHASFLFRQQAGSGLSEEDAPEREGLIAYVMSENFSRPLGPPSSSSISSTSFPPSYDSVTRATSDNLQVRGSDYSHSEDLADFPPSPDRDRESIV

How the values were obtained:
human Nav1.7 = human Nav1.7 (Homo sapiens, UniProt Q15858); experiment: PatchXpress sodium current measurement, inactivated state block, Nav1.7; assay type: cell-based; settings: read-out: potency for the Nav 1.7 sodium ion channel (1.7=), channels stably expressed in HEK 293 cells, double-pulse protocol, 22° C.
Description: (§1) Cell Based Assays for Nav 1.7 and Nav 1.5 Activity
(§2) Compounds were tested on human Nav1.7 and Nav1.5 channels stably expressed in HEK 293 cells.
(§3) Sodium Current Measurements on the PatchXpress 7000:
(§4) To measure inactivated state block of sodium channels, test compounds were characterized in an automated PatchXpress® assay (Molecular Devices) using a double-pulse protocol on human Nav1.7 and Nav1.5 channels stably expressed in HEK 293 cells. Cells were held at a potential 20 mV negative to the potential at which ˜50% of the channels are inactivated. A 8000 ms pre-pulse 7 mV positive to the potential at which ˜50% of the channels are inactivated was given followed by a hyperpolarizing 2 ms pulse to −120 mV and a 20 ms test pulse to −20 mV. The protocol was applied to cells in the absence, presence of compound and after washout. The temperature of PatchXpress® instruments was maintained at 22° C. The following recording solutions were used. Internal solution (mM): 30 CsCl, 5 HEPES, 10 EGTA, 120 CsF, 5 NaF, 2 MgCl2, pH 7.3 with CsOH. External solution (mM): 120 NMDG, 40 NaCl, 1 KCl, 0.5 MgCl2, 5 HEPES, 2.7 CaCl2, pH 7.5 with NMDG-OH. Estimated IC50 values were calculated based on at least two compound concentrations tested. […] IC50 values were determined by fitting to the Hill equation.

human Nav1.5 = human Nav1.5 (Homo sapiens, UniProt Q14524); experiment: PatchXpress sodium current measurement, inactivated state block, Nav1.5; assay type: cell-based; settings: determined by PatchXpress measurement, HEK 293 cells
Description: as §1, §2, §3, §4

IC50 (human Nav1.7): 52 nM
Compound: C[C@H](c1ccccc1C1=CCCNC1)n1c(=O)oc2cc(S(=O)(=O)Nc3cccc(F)n3)c(F)cc21
ratio of Nav 1.5:Nav 1.7 potency (human Nav1.5): 1475
